Reference: patent EP0595743B1, “Bihaptinic derivatives for binding technetium or rhenium, process for their preparation, application for diagnosis and therapy, kits and immunological reactants comprising them” (priority 1992, dated 2001)

Assays:
[1] = 10 nanomol, observed for 16 days
[2] = probe alone, 13 µCi, 2 pmol
Procedure: (§1) La liaison du dérivé de l'exemple 3 aux cellules hépatiques s'effectue par l'intermédiaire de sa liaison au site Ac de l'anticorps 679.1MC7, lui même lié par son fragment F(c) à ces cellules. Des souris ayant reçu 2µg d'anticorps 679.1MC7 24 heures plus tôt sont injectées par voie intraveineuse avec 100 µCi (15 pmol) de dérivé de l'exemple 3. Les images sont réalisées avec une caméra Sopha Medical Gammatome 2 équipée avec un collimateur haute résolution de moyenne énergie, puis les animaux sont sacrifiés et la radioactivité présente dans le foie est déterminée à l'aide d'un compteur gamma. […] 100 µCi de dérivé de l'exemple 3 sont injectés à une souris ayant reçu quelques minutes plus tôt 1µg de conjugué anticorps CY34-679.1MC7 (anti-lyb8.2-anti-Histamine-Succinyl-Glycine). Les images sont enregistrées comme indiqué dans l'exemple précédent. […] Des cellules de tumeurs colorectales humaines (cellules LS 174, 3.10^6) sont injectées par voie sous cutanée à des souris nudes. […] Les souris reçoivent alors 2µg de conjugué anticorps F6-679.1MC7 (antiCEA-anti-Histamine-Succinyl-Glycine). Vingt quatre heures plus tard les souris reçoivent 6,7µCi (1pmol) de dérivé de l'exemple 3. Six heures plus tard les images sont enregistrées comme indiqué dans l'exemple précédent puis les animaux sacrifiés.

[3] = test system: anticorps reconnaissant le haptène histamine-succinyl-glycine; conditions: radioactivity excreted in urine, tested against anti-hapten antibody
Procedure: as §1

Substance: ^99mTc mercaptoacétyl-Glycyl-Glycyl-Glycyl-N-ε-(Histamine-Succinyl-Glycine)-Lysyl-D-Tyrosyl-N-ε-(Histamine-Succinyl-Glycine)-Lysinamide [Exemple 3]
- signe de toxicité [1]: aucun signe de toxicité
- prise de poids ([1]; versus control animals): n'a pas été significativement différente
- élimination de l'activité [2]: élimination très rapide de l'activité, principalement dans les urines
- % de la dose injectée par gramme de foie ([2]; 6 h after injection, liver): 1 % par gramme
- % de la dose injectée par ml de plasma ([2]; 6 h after injection, plasma): < 0,15 % de la dose injectée par ml
- % de la dose injectée par gramme de rate ([2]; 6 h after injection, spleen): 0,2 % par gramme
- % de la dose injectée par gramme de tumeur ([2]; 6 h after injection, tumour): 0,25 % par gramme
- immunoréactivité de la radioactivité excrétée dans les urines [3]: ~90%
